# Target: Adenosine receptor A3 (Rattus norvegicus, UniProt P28647)
# Protein sequences, listed by entry. Tags and fused reporters are not part of them.
# UniProt P28647, whole entry: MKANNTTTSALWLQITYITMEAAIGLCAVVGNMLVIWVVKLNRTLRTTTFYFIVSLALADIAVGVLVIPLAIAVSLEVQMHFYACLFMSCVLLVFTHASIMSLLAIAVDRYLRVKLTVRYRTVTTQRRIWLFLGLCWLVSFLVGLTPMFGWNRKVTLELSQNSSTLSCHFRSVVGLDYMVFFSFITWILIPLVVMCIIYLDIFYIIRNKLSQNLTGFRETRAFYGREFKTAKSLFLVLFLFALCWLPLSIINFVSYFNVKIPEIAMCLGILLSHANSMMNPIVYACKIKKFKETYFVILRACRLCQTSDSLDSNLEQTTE
# Experiment: Binding affinity to rat adenosine A3 receptor in CHO cells
# Type: cell-based
structure (smiles),measurement,value
OC[C@H]1O[C@@H](n2cnc3c(NC4CCCC4)ncnc32)[C@H](O)[C@@H]1O [N6-CYCLOPENTYLADENOSINE],Ki,97 nM

# Source: ChEMBL document CHEMBL1140427, “Semi-rational design of (north)-methanocarba nucleosides as dual acting A(1) and A(3) adenosine receptor agonists: novel prototypes for cardioprotection” (J Med Chem, 2005)
